Measurements reported in article PMC2901986 (Nature, 2010).

By UniProt entry, the sequences of proteins in these tests, tags left out. Residues count along the entry.
UniProt P00519, 46-515 E505K: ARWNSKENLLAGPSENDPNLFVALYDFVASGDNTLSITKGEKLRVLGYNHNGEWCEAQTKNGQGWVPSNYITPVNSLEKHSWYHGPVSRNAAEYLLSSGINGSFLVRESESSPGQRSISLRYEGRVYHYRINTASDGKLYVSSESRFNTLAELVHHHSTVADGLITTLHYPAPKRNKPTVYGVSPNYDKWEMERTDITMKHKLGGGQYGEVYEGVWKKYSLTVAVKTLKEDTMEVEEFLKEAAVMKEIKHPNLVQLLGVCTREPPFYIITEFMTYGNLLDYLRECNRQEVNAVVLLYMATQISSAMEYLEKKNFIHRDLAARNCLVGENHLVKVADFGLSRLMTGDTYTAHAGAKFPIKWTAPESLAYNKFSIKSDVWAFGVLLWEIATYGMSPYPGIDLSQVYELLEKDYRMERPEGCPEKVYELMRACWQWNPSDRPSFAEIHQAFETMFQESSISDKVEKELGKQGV
UniProt P00519, 46-515: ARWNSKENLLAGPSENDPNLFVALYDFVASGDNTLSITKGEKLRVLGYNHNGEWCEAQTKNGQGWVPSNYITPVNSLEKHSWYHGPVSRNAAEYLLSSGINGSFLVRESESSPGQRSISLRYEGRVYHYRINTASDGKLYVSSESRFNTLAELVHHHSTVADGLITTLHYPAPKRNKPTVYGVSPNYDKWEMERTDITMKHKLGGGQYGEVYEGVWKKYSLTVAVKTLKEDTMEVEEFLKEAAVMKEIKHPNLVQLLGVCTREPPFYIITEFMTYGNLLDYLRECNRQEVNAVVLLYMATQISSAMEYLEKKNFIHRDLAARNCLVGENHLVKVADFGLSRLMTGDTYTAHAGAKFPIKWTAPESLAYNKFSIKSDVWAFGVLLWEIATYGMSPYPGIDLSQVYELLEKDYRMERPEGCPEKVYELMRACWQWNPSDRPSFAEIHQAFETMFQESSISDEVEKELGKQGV

How the values were obtained:
E505K Abl kinase = E505K Abl kinase (Homo sapiens, UniProt P00519, E505K); assay: ATP/NADH-coupled Abl kinase assay, E505K; type: biochemical; details: read-out: IC50, E505K Abl; ATP concentration of 20 µM
wild-type Abl kinase = wild-type Abl kinase (Homo sapiens, UniProt P00519)

O=C(NCCO)c1cccc(-c2cc(Nc3ccc(OC(F)(F)F)cc3)ncn2)c1 [GNF-5]
IC50 (E505K Abl kinase): > 10000 nM
IC50 (wild-type Abl kinase; read-out: IC50, wild-type Abl, ATP concentration of 20 µM): 220 ± 10 nM
EC50 (wild-type Abl kinase; read-out: estimated EC50, Fig. S9d): 169 nM
